Measurements as given in US6447783.

Assays:
[1] = molecular target: Soluble extracellular domain of murine FGFR3 (IIIc isoform) coupled to human placental alkaline phosphatase (murine; human) (UniProt Q61851); experiment: 125I-FGF9 saturation binding to soluble receptor-AP on plates, Scatchard analysis
[2] = molecular target: Soluble extracellular domain of murine FGFR2 (IIIc isoform) coupled to human placental alkaline phosphatase (murine; human) (UniProt P21803); experiment: as above
[3] = molecular target: Fibroblast growth factor receptor 3 (FGFR3), form not stated (as named in the summary) (Mus musculus (Mouse)) (UniProt Q61851); experiment: not stated (told in the summary)
[4] = molecular target: Soluble extracellular domain of murine FGFR2 (IIIc isoform) coupled to human placental alkaline phosphatase (murine; human) (UniProt P21803); experiment: 125I-FGF9 saturation binding to soluble receptor-AP on plates, Scatchard analysis, within every single experiment

Substance: Recombinant mouse FGF9 (fibroblast growth factor 9) (from UniProt P36364 1-208) (ligand)
- Kd [1]: 0.78 nM
- Kd [2]: 2.38 nM
- Kd [3]: 0.25 nM
- fold lower affinity compared to FGFR3 [4]: 3 fold
